Measurements as given in patent US20050186292A1, “Antimicrobial agent” (Japan Bio Science Laboratory Co., Ltd., priority 2004, published 2005).

Test system: Helicobacter pylori NCTC11637
Test: Disk diffusion: diameter of inhibition circle on Brain Heart Infusion blood agar
Format: cell-based
Conditions: 30 μg per disk, 72 hours
Method: The antimicrobial activity against Helicobacter pylori was examined using the obtained Angelica keiskei sap and the Angelica keiskei sap preparation. Angelica keiskei sap (a), (b) a five-fold dilution of Angelica keiskei sap (a) (dilution with sterilized water), (c) a suspension in which the Angelica keiskei sap preparation was suspended in a concentration of 200 mg/ml in a sterilized water, and (d) a five-fold dilution of the suspension (c) (the concentration of the Angelica keiskei sap preparation: 40 mg/ml) were prepared, and 50 μl of each of them was spotted in a sterilized disk having a diameter of 6.35 mm, and dried at 37° C. to obtain sample disks. Each sample disk was placed onto a Brain Heart Infusion blood agar medium containing 5% horse defibrinated blood to which Helicobacter pylori NCTC11637 was inoculated, and was cultured under microaerophilic conditions at 37° C. for 72 hours, and then the diameter of an inhibition circle appeared in the agar medium was measured. Two disks per sample were used. As a positive control (e), a sterilized disk containing cephalothin (30 μg) was used, and as a negative control (f), those containing nalidixic acid (30 μg) was used (both manufactured by EIKEN CHEMICAL CO., LTD.).
The composition of the Brain Heart Infusion blood agar medium (OXOID Ltd.) was obtained by adding horse defibrinated blood to the medium shown in Table 2 below so that the final concentration was 5 w/v %.
The Brain Heart Infusion blood agar medium was prepared by first sterilizing the agar medium shown in Table 2, cooling to about 50° C., and then adding horse defibrinated blood so that the final concentration was 5 w/v %.

Compound | Diameter of Inhibition circle (disk 1) [mm] | Diameter of Inhibition circle (disk 2) [mm]
CC(=O)OCC1=C(C(=O)O)N2C(=O)[C@@H](NC(=O)Cc3cccs3)[C@H]2SC1 [Cephalothin, cephalothin] | 44 | 46
CCn1cc(C(=O)O)c(=O)c2ccc(C)nc21 [Nalidixic acid, nalidixic acid] | 0 | 0
